We go through one substance from patent publication US20220226372A1 (priority 2019, published 2022).

The test system of experiment [1] is HL60 cells. The following applies: 48 h.
The subject of experiment [2] is C57BL6 mice splenic cells. The experiment can be described thus: Mixed lymphocyte reaction (MLR), cell proliferation by UptiBlue. The class given is cell-based, mouse. The following applies: arsenic compound 1 μM, mitogen CD3 5 μg/ml/CD28 2 μg/ml.
Experiment [3] relates to HL60 cells. The experiment can be described thus: HL-60 cell viability (crystal violet). The class given is cell-based, Human. The settings on record: 48 h.
Setting [4] is: arsenic compound alone at 0.1, 0.5, 1, 5 and 10 μM vs control.

arsenic triiodide: the “Effect on H2O2 production vs control” value in the experiment on HL60 cells [1] (AsI3 1 μM (Example 8)) was “not effect”. For the same substance, in the experiment on HL60 cells [1] (setting [4]), the “Effect on the production of H2O2” value is reported as “significantly reduced H2O2 production at all tested concentrations”. In experiment [2], the “Cell proliferation in the presence of mitogen” value is given as “only significantly active on test 2”. Besides, the “Effect on cell survival vs control” value in the experiment on HL60 cells [3] (AsI3 1 μM (Example 8)) is “not effect”. Further, the “HL-60 cell viability: concentrations with significant decrease” value in the experiment on HL60 cells [3] (setting [4]) is 10 µM.
